## Measured affinities in a library of Ab-91 heavy chain variants

Source: Engelhart et al. 2022 (doi:10.1038/s41597-022-01779-4), MIT Lincoln Laboratory and A-Alpha Bio; data file from the FLAb repository.

The target is the same throughout: PDVDLGDISGINAS, from the HR2 region of SARS-CoV-2 spike.

Each scFv is VL, the linker GGGGSGGGGSGGGGS, VH, as in the parent Ab-91, and differs from it in the CDRs of the heavy chain only.
VL: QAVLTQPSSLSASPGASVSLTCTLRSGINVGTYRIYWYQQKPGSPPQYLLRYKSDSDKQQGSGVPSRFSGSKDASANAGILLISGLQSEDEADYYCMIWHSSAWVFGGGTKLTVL
VH: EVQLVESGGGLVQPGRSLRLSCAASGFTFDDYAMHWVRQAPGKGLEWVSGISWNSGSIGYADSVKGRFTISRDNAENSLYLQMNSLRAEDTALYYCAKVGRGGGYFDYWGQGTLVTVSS

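The parent was found by panning a naive human phage display library on the peptide. In library AAYL51, one, two or three CDR residues were substituted; doubles and triples were drawn at random. Affinity was read by AlphaSeq, a pooled yeast mating assay with surface-displayed partners. Binding brings cells together so that they mate, and sequencing counts the barcode pairs among the diploids. Each replicate has its own calibration line, from reference interactions of the BCL2 family. The assay was run in three technical replicates.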

Substitutions are numbered in sequence along the VH above, starting at 1 (not Kabat). The Kd shown is the geometric mean over detected replicates; a lower Kd is a better binder. "no signal" means that the variant was in the library but no mating with the target was seen in any replicate; the authors take this as a sign of poor binding, and no number exists.

{"changes": "I51M S55V S57D", "Kd": "no signal", "replicates with signal": "0/3"}
{"changes": "F27I T28I D31E", "Kd": "no signal", "replicates with signal": "0/3"}
{"changes": "V99I G103N Y108I", "Kd": "12 µM", "replicates with signal": "1/3"}
{"changes": "V64N V99T G103W", "Kd": "17 µM", "replicates with signal": "2/3"}
{"changes": "D31N M34H S55N", "Kd": "66 µM", "replicates with signal": "2/3"}
{"changes": "D31N S55R A61Q", "Kd": "180 µM", "replicates with signal": "2/3"}
{"changes": "S55K Y60L F106S", "Kd": "140 µM", "replicates with signal": "1/3"}
{"changes": "S55C Y105A D107A", "Kd": "5.3 µM", "replicates with signal": "1/3"}
{"changes": "I51E S55F", "Kd": "69 µM", "replicates with signal": "3/3"}
{"changes": "G50F G56N G104T", "Kd": "no signal", "replicates with signal": "0/3"}
{"changes": "G26I G50W S55C", "Kd": "no signal", "replicates with signal": "0/3"}
{"changes": "G26A G50E S63W", "Kd": "no signal", "replicates with signal": "0/3"}
{"changes": "G26F V99I F106E", "Kd": "6.4 µM", "replicates with signal": "3/3"}
{"changes": "I58S S63C D107Y", "Kd": "no signal", "replicates with signal": "0/3"}
{"changes": "G59P Y60D", "Kd": "14 µM", "replicates with signal": "1/3"}
{"changes": "D30E N54F V64Q", "Kd": "12 µM", "replicates with signal": "1/3"}
{"changes": "F29I S55P I58N", "Kd": "900 µM", "replicates with signal": "1/3"}
{"changes": "I51F Y60N F106C", "Kd": "no signal", "replicates with signal": "0/3"}
{"changes": "A33P K65Q G102Y", "Kd": "570 nM", "replicates with signal": "3/3"}
{"changes": "M34P Y108W", "Kd": "no signal", "replicates with signal": "0/3"}
{"changes": "Y32S N54K", "Kd": "no signal", "replicates with signal": "0/3"}
{"changes": "F27P G100Q", "Kd": "31 µM", "replicates with signal": "1/3"}
{"changes": "G50W G59Q Y108D", "Kd": "no signal", "replicates with signal": "0/3"}
{"changes": "G56H S57R G59H", "Kd": "37 µM", "replicates with signal": "2/3"}
{"changes": "F29S A61G", "Kd": "no signal", "replicates with signal": "0/3"}
{"changes": "F29N S52M G104L", "Kd": "65 µM", "replicates with signal": "1/3"}
{"changes": "I51K G59M F106R", "Kd": "69 µM", "replicates with signal": "1/3"}
{"changes": "M34Q G56P D62Q", "Kd": "no signal", "replicates with signal": "0/3"}

Extract of 3 entries:

changes	Kd	replicates with signal
F27P G100Q	31 µM	1/3
F29S A61G	no signal	0/3
I51F Y60N F106C	no signal	0/3

Nonspecific signal, from three strains lacking the peptide, appeared in 21% of pairings of library AAYL51, centred on 34 µM (5% of these signals below 1.8 µM); values are not corrected for it. Parent in this assay: reference entry 72 nM, copy in this library 7.5 nM.